This note sets out measurements from patent US20180118718A1 (published 2018).

Sequences of proteins named here, by UniProt entry; tags and fusion partners are left off. A change or cut given only in a name is not applied to a line headed by its entry.
UniProt Q16875: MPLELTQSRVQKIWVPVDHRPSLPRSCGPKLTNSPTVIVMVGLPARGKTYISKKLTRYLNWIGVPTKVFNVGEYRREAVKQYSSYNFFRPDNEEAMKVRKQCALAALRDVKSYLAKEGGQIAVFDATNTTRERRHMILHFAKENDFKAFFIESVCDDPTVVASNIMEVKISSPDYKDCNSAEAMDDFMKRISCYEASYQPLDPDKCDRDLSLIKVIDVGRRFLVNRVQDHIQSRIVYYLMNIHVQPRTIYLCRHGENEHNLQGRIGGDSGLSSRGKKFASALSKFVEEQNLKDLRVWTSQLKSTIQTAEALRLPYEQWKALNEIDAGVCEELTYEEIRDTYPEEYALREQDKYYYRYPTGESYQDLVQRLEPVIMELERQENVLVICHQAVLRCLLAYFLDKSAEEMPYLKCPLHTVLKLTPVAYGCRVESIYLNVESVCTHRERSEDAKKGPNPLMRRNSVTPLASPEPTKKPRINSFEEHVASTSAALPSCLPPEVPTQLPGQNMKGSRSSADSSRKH

For this assay, the target named is Human recombinant His-tagged PFKFB3 (Homo sapiens, UniProt Q16875). As to the kind of experiment: PFKFB3 IC50 Determination Assay (in vitro kinase assay, modified ADP-Glo system). Format: biochemical. (ADP-Glo first removes unused ATP, then detects ADP through luciferase.)
`CS(=O)(=O)c1ccncc1Nc1cc(-c2ccc3c(c2)OCCO3)c2nccnc2c1` [Example 1]: the IC50 (commonly the concentration that gives 50% inhibition) was in the range of 1000 to 10000 nM.

`CS(=O)(=O)c1ccncc1Nc1cc(-c2ccc3ncsc3c2)c2nccnc2c1` [Example 4]: the IC50 was 1 to 1000 nM. Consider `CS(=O)(=O)c1ccncc1Nc1cc(-c2ccc3scnc3c2)c2nccnc2c1` [Example 9], for which the IC50 lay within 1 to 1000 nM. As for `COc1ncccc1Nc1cc(-c2ccc3ccn(C)c3c2)c2nccnc2c1` [Example 13, N-(2-Methoxypyridin-3-yl)-8-(1-methyl-1H-indol-6-yl)quinoxalin-6-amine], the IC50 is 1 to 1000 nM. Then `Cn1ccc2ccc(-c3cc(Nc4cnccc4C#N)cc4nccnc34)cc21` [Example 18, 3-{[8-(1-Methyl-1H-indol-6-yl)quinoxalin-6-yl]amino}pyridine-4-carbonitrile], with 1 to 1000 nM. Under `Cc1coc2ccc(-c3cc(Nc4cnccc4S(C)(=O)=O)cc4nccnc34)cc12` [Example 22] stands 1 to 1000 nM; under `COc1ccncc1Nc1cc(-c2ccc3ccn(C)c3c2)c2nccnc2c1` [Example 23, N-(4-methoxypyridin-3-yl)-8-(1-methyl-1H-indol-6-yl)quinoxalin-6-amine], 1 to 1000 nM. As to `CS(=O)(=O)c1ccncc1Nc1cc(-c2ccc3c(c2)CCO3)c2nccnc2c1` [Example 37], the IC50 fell in the range of 1 to 1000 nM.

Take `CC(C)n1ccc2ccc(-c3cc(Nc4cnccc4S(C)(=O)=O)cc4nccnc34)cc21` [Example 49]: the IC50 lay within 1000 to 10000 nM. Then `CN(C)c1cccc(-c2cc(Nc3cnccc3S(C)(=O)=O)cc3nccnc23)c1` [Example 50], with 1 to 1000 nM; and `CCc1ccc(-c2cc(Nc3cnccc3S(C)(=O)=O)cc3nccnc23)cc1` [Example 60], with 1 to 1000 nM. For the molecule `COc1cccc(-c2cc(Nc3cnccc3S(C)(=O)=O)cc3nccnc23)c1` [Example 62], the IC50 is 1 to 1000 nM. Then `CC1(C)COc2ccc(-c3cc(Nc4cnccc4S(C)(=O)=O)cc4nccnc34)cc21` [Example 63], with 1000 to 10000 nM; and `Cn1ccc2c(F)cc(-c3cc(Nc4cnccc4S(C)(=O)=O)cc4nccnc34)cc21` [Example 71], with 1 to 1000 nM.

For `Cn1ccc2ccc(-c3cc(Nc4ccccc4C#N)cc4nccnc34)cc21` [Example 88, 2-{[8-(1-Methyl-1H-indol-6-yl)quinoxalin-6-yl]amino}benzonitrile], the IC50 lay in the range of 1 to 1000 nM.

As to `Cn1ccc2ccc(-c3cc(Nc4ccccc4C(N)=O)cc4nccnc34)cc21` [Example 89, 2-{[8-(1-methyl-1H-indol-6-yl)quinoxalin-6-yl]amino}benzamide], the IC50 was in the range of 1 to 1000 nM. For `Cn1ccc2ccc(-c3cc(Nc4cnccc4C(=O)NC4CCOCC4)cc4nccnc34)cc21` [Example 101, 3-{[8-(1-Methyl-1H-indol-6-yl)quinoxalin-6-yl]amino}-N-(oxan-4-yl)pyridine-4-carboxamide], the IC50 fell in the range of 1 to 1000 nM. Under `CN(c1cc(-c2ccc3ccn(C)c3c2)c2nccnc2c1)c1cnccc1S(C)(=O)=O` [Example 104] stands 1000 to 10000 nM; under `Cc1csc2ccc(-c3cc(Nc4cnccc4S(C)(=O)=O)cc4nccnc34)cc12` [Example 110], 1 to 1000 nM; under `CS(=O)(=O)c1ccncc1Nc1cc(-c2ccc3nsnc3c2)c2nccnc2c1` [Example 117], 1 to 1000 nM.

Take `CS(=O)(=O)c1ccncc1Nc1cc(-c2ccc3nonc3c2)c2nccnc2c1` [Example 120]: the IC50 is 1000 to 10000 nM.

Consider `CS(=O)(=O)c1ccncc1Nc1cc(-c2ccc(N)cc2)c2nccnc2c1` [Example 131], for which the IC50 fell in the range of 1000 to 10000 nM. Under `CS(=O)(=O)c1ccncc1Nc1cc(-c2cccc(N)c2)c2nccnc2c1` [Example 132] stands 1000 to 10000 nM; under `COc1ccc(-c2cc(Nc3cnccc3S(C)(=O)=O)cc3nccnc23)cc1` [Example 152], 1000 to 10000 nM; under `CS(=O)(=O)c1ccncc1Nc1cc(-c2ccc3ccn(C(F)F)c3c2)c2nccnc2c1` [Example 154], 1 to 1000 nM. On to `CS(=O)(=O)c1ccncc1Nc1cc(-c2ccc(Br)cc2)c2nccnc2c1` [Example 157], for which the IC50 is 1 to 1000 nM. Under `CS(=O)(=O)c1ccncc1Nc1cc(-c2cccc(Br)c2)c2nccnc2c1` [Example 158] stands 1000 to 10000 nM. With `CS(=O)(=O)c1ccncc1Nc1cc(-c2ccc3sc(N)nc3c2)c2nccnc2c1` [Example 162], the IC50 is 1 to 1000 nM. Under `CS(=O)(=O)c1ccncc1Nc1cc(-c2cccc(OC(F)(F)F)c2)c2nccnc2c1` [Example 163] stands 1000 to 10000 nM. Under `CCn1ccc2ccc(-c3cc(Nc4cnccc4S(C)(=O)=O)cc4nccnc34)cc21` [Example 166] stands 1 to 1000 nM. Consider `CCCn1ccc2ccc(-c3cc(Nc4cnccc4S(C)(=O)=O)cc4nccnc34)cc21` [Example 184], for which the IC50 lay within 1000 to 10000 nM.

For the molecule `CS(=O)(=O)c1ccncc1Nc1cc(-c2ccc(C(F)(F)F)cc2)c2nccnc2c1` [Example 185], the IC50 was 1000 to 10000 nM. Under `Cc1cc(-c2cc(Nc3cnccc3S(C)(=O)=O)cc3nccnc23)cc2c1ccn2C` [Example 189] stands 1 to 1000 nM. Then `CS(=O)(=O)c1ccncc1Nc1cc(-c2ccc3sc(N)cc3c2)c2nccnc2c1` [Example 203], with 1 to 1000 nM.

As for `CSc1cccc(-c2cc(Nc3cnccc3S(C)(=O)=O)cc3nccnc23)c1` [Example 210], the IC50 was 1 to 1000 nM.
